Only a part is listed here, and it is no random draw. Active and inactive are the calls of the source. No stated cut-off is given here; in the data, active means inhibition above about 21%; inactive means the rest.

Protein sequences, listed by entry. Tags and fused reporters are not part of them. Lines headed by an entry give the natural chain unless they say otherwise; changes in a name come on top.
UniProt Q96T88: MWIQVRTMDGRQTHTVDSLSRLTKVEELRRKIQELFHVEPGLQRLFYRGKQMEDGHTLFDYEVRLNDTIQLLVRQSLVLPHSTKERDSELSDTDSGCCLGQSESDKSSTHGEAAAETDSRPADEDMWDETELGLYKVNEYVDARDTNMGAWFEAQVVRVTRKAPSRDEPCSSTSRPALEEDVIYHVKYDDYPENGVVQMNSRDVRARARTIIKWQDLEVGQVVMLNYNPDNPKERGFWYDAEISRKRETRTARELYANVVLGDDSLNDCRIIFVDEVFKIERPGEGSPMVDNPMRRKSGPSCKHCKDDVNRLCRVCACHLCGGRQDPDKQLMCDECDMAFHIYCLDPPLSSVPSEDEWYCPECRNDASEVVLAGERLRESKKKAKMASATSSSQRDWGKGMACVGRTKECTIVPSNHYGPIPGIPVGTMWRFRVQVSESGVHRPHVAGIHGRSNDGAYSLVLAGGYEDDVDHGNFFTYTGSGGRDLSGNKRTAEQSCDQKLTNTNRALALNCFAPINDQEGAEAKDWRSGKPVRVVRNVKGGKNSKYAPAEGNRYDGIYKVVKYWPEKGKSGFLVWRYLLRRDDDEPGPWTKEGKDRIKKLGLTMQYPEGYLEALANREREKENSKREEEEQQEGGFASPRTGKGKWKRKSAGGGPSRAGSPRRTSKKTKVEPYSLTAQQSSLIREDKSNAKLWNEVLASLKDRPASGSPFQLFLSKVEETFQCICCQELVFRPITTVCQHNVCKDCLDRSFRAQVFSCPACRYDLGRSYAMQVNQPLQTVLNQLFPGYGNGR

The assay deals with E3 ubiquitin-protein ligase UHRF1 (Homo sapiens) (UniProt Q96T88). Kind of assay: UHRF1 methylated DNA binding inhibitors, primary screen, counter-screen for MBD2 inhibitor project, biochemical, TR-FRET, human UHRF1, single concentration (AID 687016).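 Further: UHRF1 SRA domain binding a hemimethylated CpG hairpin DNA probe; 0% = median of test compound wells and 100% = reference inhibitor.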 The settings on record: UHRF1 binding to methylated oligo, at 4.4 µM, active compounds read high. Background: Counterscreens check selectivity or assay interference.
On to `O=[As](O)(c1ccc(O)cc1)c1ccccc1O`, for which the inhibition (commonly the relative decrease from the control value, in per cent) is inactive: 2.13%.

Regarding `C[As](=O)(O)c1cccc(C(=O)O)c1`, the inhibition was inactive: 1.35%.

With `Cc1ccc(OP(=O)(Nc2ccc([N+](=O)[O-])cn2)Oc2ccc(C)cc2)cc1`, the inhibition was active: 25.1%.

Turning to `[N-]=[N+]=NC1CCCCC1NC(=O)c1cc([N+](=O)[O-])cc([N+](=O)[O-])c1` (stereo not drawn), the inhibition is inactive: -4.4%.

`Cc1ccc2nc3c(c(C)c2c1)CC(C(Cl)Cl)S3` (stereo not drawn): the inhibition is inactive: 1.33%.

As for `NC(=O)Nc1ccc([As](=O)(O)O)cc1`, the inhibition was inactive: -1.92%.

As to `CCOP1(=S)c2c(C)nn(CCC#N)c2N=C(c2ccc(F)cc2)N1C` (stereo not drawn), the inhibition was inactive: -0.82%.

As for `CN(C(=O)Cc1ccccc1)[C@@H]1CC[C@]2(CCCO2)C[C@H]1N1CCCC1`, the inhibition is inactive: 1.17%.

For the molecule `N#CCCN(C(=O)COC(=O)C(O)(c1ccccc1)c1ccccc1)c1ccc(F)cc1`, the inhibition was inactive: -1.2%.

As for `CN(C(=O)Cc1ccc(Cl)c(Cl)c1)[C@H]1CC[C@@]2(CCCO2)C[C@@H]1N1CCCC1`, the inhibition is inactive: -0.27%.

In the case of `CN(C)C(=O)c1cc([N+](=O)[O-])cc2c1-c1c(cc([N+](=O)[O-])cc1[N+](=O)[O-])C2=O`, the inhibition was inactive: -7.2%.

With `O=[N+]([O-])c1ccc2c(c1)nnn2O`, the inhibition was inactive: 2.47%.

As to `O=P(Nc1nccs1)(Oc1ccccc1)Oc1ccccc1`, the inhibition is inactive: -1.13%.

Consider `CCOP1(=S)c2c(C)nn(CCC#N)c2N=C(c2ccccc2F)N1C` (stereo not drawn), for which the inhibition is inactive: 0.99%.

On to `O=C(O)COc1ccc([As](=O)(O)O)cc1[N+](=O)[O-]`, for which the inhibition is active: 40.2%.

`Nc1ccccc1[As](=O)(O)c1ccccc1`: the inhibition is inactive: -0.44%.

With `Nc1cccc2c([As](=O)(O)O)cccc12`, the inhibition was inactive: 19.1%.

Take `Cc1ccc(NCCc2c([N+](=O)[O-])cc([N+](=O)[O-])cc2[N+](=O)[O-])cc1`: the inhibition was inactive: -7.73%.

For the molecule `CCCOP(=S)(Nc1nc(N)cc(=O)[nH]1)OCCC`, the inhibition was inactive: 6.97%.

For the molecule `CCOP(=O)(Nc1cccc2ccccc12)OCC`, the inhibition is inactive: -0.34%.

Regarding `COc1cc(C2NCCC3(OCCO3)C2(C)C)cc(OC)c1OC` (stereo not drawn), the inhibition is inactive: -2.22%.

In the case of `O=C(OC1CN2CCC1CC2)c1ccc(Cl)cc1` (stereo not drawn), the inhibition is inactive: 3.43%.

With `CS(=O)(=O)c1ccc(Cl)c(NC(=O)COC(=O)C(O)(c2ccccc2)c2ccccc2)c1`, the inhibition was inactive: 2.2%.

On to `COc1cc(C(=O)NCC2(N3CCOCC3)CCCCC2)cc(Cl)c1OC(C)C`, for which the inhibition was inactive: 7.97%.

For the molecule `O=[As](O)(O)c1cccnc1`, the inhibition was inactive: -2.21%.

As to `O=[As](O)(c1cccc(O)c1)c1cccc(O)c1`, the inhibition is inactive: -1.96%.

For the molecule `Cc1cccc(OCC(=O)OC2CN3CCC2CC3)c1` (stereo not drawn), the inhibition is inactive: -1.77%.

Take `COc1ccccc1CNC(=O)COC(=O)C(O)(c1ccccc1)c1ccccc1`: the inhibition is inactive: 0.79%.

Turning to `CN(C(=O)Cc1ccc(Cl)c(Cl)c1)C1CCCC[C@@H]1N1CCCC1` (stereo partly drawn), the inhibition was inactive: 1.02%.

On to `CN(C(=O)Cc1ccc(Cl)c(Cl)c1)[C@@H]1CCCC[C@H]1N1CCCC1`, for which the inhibition was inactive: 1.49%.

For `CC(C)/C=N\N=C(\N)N[N+](=O)[O-]`, the inhibition is inactive: -1.72%.

As for `CC1(CBr)Cn2c(nc3ccccc3c2=O)S1` (stereo not drawn), the inhibition was inactive: 0.29%.

Regarding `CCOP(=O)(NC(=NC(C)c1ccccc1)NC(C)c1ccccc1)OCC` (stereo not drawn), the inhibition is inactive: -2.02%.

For the molecule `CCC1=CC2Cc3nc4ccc(Cl)cc4c(N)c3C(C1)C2` (stereo not drawn), the inhibition was inactive: -1.84%.

For `O=P1(Nc2ccccn2)COc2ccccc2OC1`, the inhibition is inactive: 0.24%.

Regarding `CN(CCCl)Cc1cc(Cl)c(NC2=NCCN2)c(Cl)c1`, the inhibition is inactive: -3.5%.

Turning to `CCOP(=O)(Nc1ccc(C)cn1)OCC`, the inhibition was inactive: 0.9%.

On to `CC(C)(C)C(=O)NC(Sc1ncccn1)C(Cl)(Cl)Cl` (stereo not drawn), for which the inhibition was inactive: 2.6%.

On to `Clc1n[nH]nc1-c1nn[nH][15n]1`, for which the inhibition was inactive: 1.14%.

As to `O=P1(N(CCCl)CCCl)NCCC(C(F)(F)F)O1` (stereo not drawn), the inhibition was inactive: -0.1%.

In the case of `Cc1ccc(S(=O)(=O)N(CCCN)CCCc2c(C)nc(N)[nH]c2=O)cc1`, the inhibition was inactive: -1.61%.

As to `O=P1(Nc2ncccn2)COc2ccccc2OC1`, the inhibition is inactive: 2.75%.

In the case of `Nc1cccc([As](=O)(O)c2ccccc2)c1`, the inhibition was inactive: -0.93%.

`NS(=O)(=O)c1cccc(NC(=O)COC(=O)C(O)(c2ccccc2)c2ccccc2)c1`: the inhibition is inactive: -0.66%.

Regarding `O=P1(Nc2ccc(Br)cn2)COc2ccccc2OC1`, the inhibition is inactive: -4.38%.

As for `O=[As](O)(c1cccs1)c1cccs1`, the inhibition was inactive: 0.29%.

Consider `Cc1ccc(OCC(=O)OC2CN3CCC2CC3)cc1` (stereo not drawn), for which the inhibition is inactive: 13.4%.

Consider `Cc1ccc(C(=O)OC2CN3CCC2CC3)cc1` (stereo not drawn), for which the inhibition is inactive: 1.56%.

For the molecule `CC1CCC(C(C)C)C(OP(=O)(Nc2ccccn2)c2ccccc2)C1` (stereo not drawn), the inhibition was inactive: 0.88%.

`Cc1nn(-c2ccccc2)c2c1P(=O)(N1CCOCC1)N(C)C(c1ccccc1)=N2` (stereo not drawn): the inhibition is inactive: 1.71%.

For `CN(C)C1(CNC(=O)c2ccc(S(C)(=O)=O)cc2)CCCCC1`, the inhibition was inactive: 4.69%.

For `CCCC1OP(=O)(Nc2ccccc2)OCC1CC` (stereo not drawn), the inhibition was inactive: 1.12%.

For `O=C(/C=C/c1ccccc1)OC1CN2CCC1CC2` (stereo not drawn), the inhibition was inactive: -2.1%.
